Data published in article PMC12163725, “Synthesis and functionalization of vinyl sulfonimidamides and their potential as electrophilic warheads” (Chemical Science, 2025).

Assay: Kinetic study of reaction with glutathione (GSH), half-life by 1H NMR (disappearance of vinyl group)
Conditions: pH 7.3 buffer/(CD3)2SO

C=CC(=O)N1CCOCC1 [Compound 8, 4-acryloylmorpholine]
Control experiments (reactivity without GSH): only GSH-dependent reactivity
